For 1 compound, t1/2 results are on record in ChEMBL document CHEMBL2069197 (ACS Med Chem Lett, 2012).

A short description of the data set: Half life in aqueous media at pH 7. Particulars: buffer.

The structures appear in SMILES notation.

`C/C(=N\OC(=O)[C@@H]1CCCN1)[C@H]1CC[C@H]2[C@@H]3CCC4=CC(=O)CC[C@]4(C)[C@H]3CC[C@]12C` returned a t1/2 of 52 min.
